Test results taken from article PMC12781765 (2025).

B1: Gαo wild-type (non-tagged) [human] / GFP-Ric8A [not stated] (parent complex)
chain 1: MGCTLSAEERAALERSKAIEKNLKEDGISAAKDVKLLLLGAGESGKSTIVKQMKIIHEDGFSGEDVKQYKPVVYSNTIQSLAAIVRAMDTLGIEYGDKERKADAKMVCDVVSRMEDTEPFSAELLSAMMRLWGDSGIQECFNRSREYQLNDSAKYYLDSLDRIGAADYQPTEQDILRTRVKTTGIVETHFTFKNLHFRLFDVGGQRSERKKWIHCFEDVTAIIFCVALSGYDQVLHEDETTNRMHESLMLFDSICNNKFFIDTSIILFLNKKDLFGEKIKKSPLTICFPEYTGPNTYEDAAAYIQAQFESKNRSPNKEIYCHMTCATDTNNIQVVFDAVTDIIIANNLRGCGLY
chain 2: MEPRAVAEAVETGEEDVIMEALRSYNQEHSQSFTFDDAQQEDRKRLAELLVSVLEQGLPPSHRVIWLQSVRILSRDRNCLDPFTSRQSLQALACYADISVSEGSVPESADMDVVLESLKCLCNLVLSSPVAQMLAAEARLVVKLTERVGLYRERSFPHDVQFFDLRLLFLLTALRTDVRQQLFQELKGVRLLTDTLELTLGVTPEGNPPPTLLPSQETERAMEILKVLFNITLDSIKGEVDEEDAALYRHLGTLLRHCVMIATAGDRTEEFHGHAVNLLGNLPLKCLDVLLTLEPHGDSTEFMGVNMDVIRALLIFLEKRLHKTHRLKESVAPVLSVLTECARMHRPARKFLKAQVLPPLRDVRTRPEVGEMLRNKLVRLMTHLDTDVKRVAAEFLFVLCSESVPRFIKYTGYGNAAGLLAARGLMAGGRPEGQYSEDEDTDTDEYKEAKASINPVTGRVEEKPPNPMEGMTEEQKEHEAMKLVTMFDKLSRNRVIQPMGMSPRGHLTSLQDAMCETMEQQLSSDPDSDPD

Variants of: B1
Assay: co-immunoprecipitation (GFP nanobody IP, Western blot quantification); HEK293T cells; n = 4; parent: 1; read off a plot
Work on chain 1 T327R yielded a ratio to parent of ~5.7. Work on chain 1 T327K yielded a ratio to parent of ~6.4.
